Sequences of proteins named here, by UniProt entry; tags and fusion partners are left off.
UniProt Q17066, whole entry: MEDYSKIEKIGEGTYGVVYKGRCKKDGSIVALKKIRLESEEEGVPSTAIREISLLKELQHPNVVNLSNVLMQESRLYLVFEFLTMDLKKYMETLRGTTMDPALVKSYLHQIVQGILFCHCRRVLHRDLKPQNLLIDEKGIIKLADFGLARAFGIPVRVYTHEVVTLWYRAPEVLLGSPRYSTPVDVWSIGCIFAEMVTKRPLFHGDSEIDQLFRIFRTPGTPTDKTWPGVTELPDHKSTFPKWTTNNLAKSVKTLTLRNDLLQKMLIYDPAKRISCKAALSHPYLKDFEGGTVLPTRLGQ

According to ChEMBL document CHEMBL1153829, “Exploiting chemical libraries, structure, and genomics in the search for kinase inhibitors” (Science, 1998):

Assays:
Cdc2 [1] = target: T1, Cdc2 (Patiria pectinifera, UniProt Q17066); assay: Inhibition of starfish cdc2/cyclin B assessed as [32P] incorporation in histone H1 from 1.5 mM [gamma32P]ATP
Cdc2 [2] = target: T1, Cdc2; assay: Inhibition of starfish cdc2/cyclin B assessed as [32P] incorporation in histone H1 from 150 µM [gamma32P]ATP

CC(C)[C@H](CO)Nc1nc(Nc2ccc(C(=O)O)c(Cl)c2)c2ncn(C(C)C)c2n1 [PURVALANOL B]
IC50 (Cdc2 [1]): 250 nM | IC50 (Cdc2 [2]): 50 nM
